Patent US11771702B2, “Agonists of PPAR-δ” (priority 2018, dated 2023)

Protein sequences, listed by entry. Tags and fused reporters are not part of them. Lines headed by an entry give the natural chain unless they say otherwise; changes in a name come on top. Residues count along the entry.
UniProt Q03181, 147-441 limits assumed: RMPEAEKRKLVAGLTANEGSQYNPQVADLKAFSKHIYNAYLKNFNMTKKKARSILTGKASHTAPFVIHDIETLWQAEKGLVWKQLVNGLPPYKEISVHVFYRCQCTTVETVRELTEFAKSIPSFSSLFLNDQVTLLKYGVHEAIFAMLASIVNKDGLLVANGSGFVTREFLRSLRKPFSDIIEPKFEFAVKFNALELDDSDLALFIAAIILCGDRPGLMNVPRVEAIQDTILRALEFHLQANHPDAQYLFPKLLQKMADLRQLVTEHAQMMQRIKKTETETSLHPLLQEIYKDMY
UniProt Q07869, 175-468 limits assumed: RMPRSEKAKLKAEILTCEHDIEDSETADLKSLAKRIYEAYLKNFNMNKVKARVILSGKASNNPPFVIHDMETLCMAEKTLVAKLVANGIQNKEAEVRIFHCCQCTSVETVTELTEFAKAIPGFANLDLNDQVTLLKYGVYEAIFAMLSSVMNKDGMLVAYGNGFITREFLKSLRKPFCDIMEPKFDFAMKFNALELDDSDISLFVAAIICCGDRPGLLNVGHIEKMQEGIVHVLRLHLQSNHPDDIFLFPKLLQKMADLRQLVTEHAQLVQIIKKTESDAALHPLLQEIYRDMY

Tests used:
PPAR-δ = PPAR-δ (Homo sapiens, UniProt Q03181); assay: GAL4-DBD/PPAR-LBD luciferase reporter agonist assay in HEK293T cells, PPAR-δ; assay type: cell-based; conditions: for EC50: read-out: EC50 PPAR-δ, Table 5
PPAR-α = PPAR-α (Homo sapiens, UniProt Q07869); assay: GAL4-DBD/PPAR-LBD luciferase reporter agonist assay in HEK293T cells, PPAR-α; assay type: cell-based

SMILES: CC(C)Oc1ccc(-c2nn(-c3ccccc3)cc2CNCCCN2CCC(O)CC2)cc1
- EC50 (PPAR-δ): ≥ 10 µM

SMILES: CC(OC(=O)c1ccc(CO)cc1)C(=O)Nc1ccc(OCc2ccccc2)cc1 (centres unmarked)
- EC50 (PPAR-δ): ≥ 10 µM

SMILES: CCCCCCCCCCCCCCCCNC(=O)CCC(=O)O
- EC50 (PPAR-δ): ≥ 10 µM

SMILES: COc1ccc(-c2nnc(SCC(=O)N3CCN(c4cccc(C(F)(F)F)c4)CC3)[nH]2)cc1
- EC50 (PPAR-δ): ≥ 10 µM

SMILES: COc1cc(C(=O)/C=C/c2ccccc2OCc2ccccc2)ccc1SCC(=O)O
- EC50 (PPAR-δ): ≥ 10 µM

SMILES: COc1ccc(C(=O)/C=C/c2ccc(C(F)(F)F)cc2)cc1CSCC(=O)O
- EC50 (PPAR-δ): ≥ 10 µM

SMILES: CC(=NNC(=S)Nc1ccc(C)cc1C)c1ccc(OCCCC(=O)O)cc1
- EC50 (PPAR-δ): ≥ 10 µM

SMILES: O=C(NCc1ccc(COCC(F)(F)F)cc1)N1CCN(c2ccccc2O)CC1
- EC50 (PPAR-δ): ≥ 10 µM

SMILES: COc1ccc2cc(C(=O)NCCCCCCC(=O)O)ccc2c1
- EC50 (PPAR-δ): ≥ 10 µM

SMILES: Cc1cc(C(=O)COc2ccc(CC(=O)O)cc2)c(C)n1-c1ccc(F)c(Cl)c1
- EC50 (PPAR-δ): ≥ 10 µM

SMILES: CCOc1cc(/C=C/c2cc(C(=O)O)c3ccccc3n2)ccc1OC(F)F
- EC50 (PPAR-δ): ≥ 10 µM

SMILES: CCn1c(-c2ccc3c(c2)OCCO3)cnc1SCC(=O)c1ccc(O)cc1O
- EC50 (PPAR-δ): ≥ 10 µM

SMILES: O=C(O)COc1ccc(/C=C/C(=O)c2ccc(C3CCCCC3)cc2)cc1
- EC50 (PPAR-δ): ≥ 10 µM

SMILES: O=C(O)c1ccc(OCCOc2ccc(Oc3ccccc3)cc2)cc1
- EC50 (PPAR-δ): ≥ 10 µM

SMILES: Cc1ccc(C(=O)Nc2cccc(CNCc3cccc(C(F)(F)F)c3)c2)cc1
- EC50 (PPAR-δ): ≥ 10 µM

SMILES: COc1ccc(Oc2ccc(CNC(=O)c3cc4c(cc3O)OCO4)cn2)cc1
- EC50 (PPAR-δ): ≥ 10 µM

SMILES: COc1ccc(Cl)cc1-c1nnc(SCC(=O)c2cc(C)n(-c3ccc4c(c3)OCCO4)c2C)[nH]1
- EC50 (PPAR-δ): ≥ 10 µM

SMILES: COc1ccc(C(=O)/C=C/c2ccc(-c3ccccc3)cc2)cc1CSCC(=O)O
- EC50 (PPAR-δ): ≥ 10 µM

SMILES: COc1cc(C(=O)NCc2ccc(C(=O)O)cc2)cc(Cl)c1OCC(C)C
- EC50 (PPAR-δ): ≥ 10 µM

SMILES: O=C(O)CCCOc1ccc(C(=O)/C=C/c2cnn(Cc3ccccc3Cl)c2)cc1
- EC50 (PPAR-δ): ≥ 10 µM

SMILES: Cc1ccc2[nH]c(SCC(=O)c3cc(C)n(-c4ccc5c(c4)OCCO5)c3C)nc2c1
- EC50 (PPAR-δ): ≥ 10 µM

SMILES: O=C(O)C(=Cc1ccc(OC(F)F)cc1)Sc1nnc(-c2ccc(F)cc2)o1
- EC50 (PPAR-δ): ≥ 10 µM

SMILES: Cc1cccc(OCC(=O)NCc2ccc(N3CCC(CO)CC3)cc2)c1
- EC50 (PPAR-δ): ≥ 10 µM

SMILES: Cc1nn(-c2ccccc2)c(Cl)c1/C=C/C(=O)c1ccc(OCCCC(=O)O)cc1
- EC50 (PPAR-δ): ≥ 10 µM

SMILES: O=C(O)COc1ccc(C=C2CN(Cc3ccccc3)Cc3c2nc2ccccc2c3C(=O)O)cc1
- EC50 (PPAR-δ): ≥ 10 µM

SMILES: COc1ccc(C(NCC(=O)Nc2ccc(N3CCCC3)cc2)c2ccccc2)cc1 (centres unmarked)
- EC50 (PPAR-δ): ≥ 10 µM

SMILES: COc1ccc(NC(=O)c2ccc(COC(=O)c3ccc(C)c(O)c3)cc2)cc1
- EC50 (PPAR-δ): ≥ 10 µM

SMILES: CCCc1cc(O)nc(SCC(=O)NC(c2ccccc2)c2ccc(OC)cc2)n1 (centres unmarked)
- EC50 (PPAR-δ): ≥ 10 µM

SMILES: Cc1cccc2c(CN(Cc3ccc(-c4ccc(Cl)cc4)o3)Cc3cc(=O)oc4c(C)c(O)ccc34)cc(=O)oc12
- EC50 (PPAR-δ): ≥ 10 µM

SMILES: COc1ccc(C(=O)/C=C/c2ccc(C(C)(C)C)cc2)cc1CSCC(=O)O
- EC50 (PPAR-δ): ≥ 10 µM

SMILES: O=C(O)c1ccc2c(=O)n3c(nc2c1)C(=Cc1ccc(OCc2ccccc2)cc1)CCCC3
- EC50 (PPAR-δ): ≥ 10 µM

SMILES: OC(CN1CCC(CCCC2CCN(CC(O)c3ccccc3)CC2)CC1)c1ccccc1 (centres unmarked)
- EC50 (PPAR-δ): ≥ 10 µM

SMILES: COc1cc(C(=O)/C=C/c2cn(-c3ccccc3)nc2-c2cc3ccccc3o2)ccc1OCC(=O)O
- EC50 (PPAR-δ): ≥ 10 µM

SMILES: CC(Oc1ccc(C(=O)NCc2cc([N+](=O)[O-])ccc2O)cn1)c1ccccc1 (centres unmarked)
- EC50 (PPAR-δ): ≥ 10 µM

SMILES: COc1cc(CNC2CCOc3ccccc32)ccc1OCC(=O)Nc1ccc(F)c(Cl)c1 (centres unmarked)
- EC50 (PPAR-δ): ≥ 10 µM

SMILES: O=C(O)C(=Cc1ccccc1OC(F)F)Sc1nnc(-c2ccc(F)cc2)o1
- agonist activity on PPAR-α (PPAR-α): not active
- agonist activity on PPAR-δ (PPAR-δ): not active
- EC50 (PPAR-δ): ≥ 10 µM

SMILES: COc1cc(/C=C/C(=O)c2ccc(SCC(=O)O)c(OC)c2)ccc1OC(F)F
- EC50 (PPAR-δ): ≥ 10 µM

SMILES: CCc1ccc(-c2nnc(SCC(=O)c3cc(C)n(-c4cccc(C(F)(F)F)c4)c3C)[nH]2)cc1
- EC50 (PPAR-δ): ≥ 10 µM

SMILES: O=c1oc2c(CN3CCN(CCO)CC3)c(O)ccc2cc1-c1nc2ccccc2s1
- EC50 (PPAR-δ): ≥ 10 µM

SMILES: Cc1cc(C(=O)CSc2n[nH]c(-c3ccccc3)n2)c(C)n1Cc1ccc2c(c1)OCO2
- EC50 (PPAR-δ): ≥ 10 µM

SMILES: COc1cc(/C=C/C(=O)OC(C)C(=O)Nc2ccc(C(C)C)cc2)ccc1O (centres unmarked)
- EC50 (PPAR-δ): ≥ 10 µM

SMILES: O=C(CCc1ccccc1O)NCc1ccc(Oc2cccnc2)c(F)c1
- EC50 (PPAR-δ): ≥ 10 µM

SMILES: O=C(COc1ccc(C(=O)/C=C/c2cccc(O)c2)cc1)Nc1ccccc1
- EC50 (PPAR-δ): ≥ 10 µM

SMILES: O=C(Nc1ccccc1O)C1CCN(C(=O)c2ccc(COc3ccccc3)o2)CC1
- EC50 (PPAR-δ): ≥ 10 µM

SMILES: COc1ccc(CCNC(=O)N2CCC(c3ccc(O)cc3)CC2)cc1OC
- EC50 (PPAR-δ): ≥ 10 µM

SMILES: COc1cc(C=C(Sc2nnc(-c3ccc(F)cc3)o2)C(=O)O)ccc1OC(F)F
- EC50 (PPAR-δ): ≥ 10 µM

SMILES: CCCOc1ccc(OCC(=O)NCc2ccc(OC)c(C(=O)O)c2)cc1
- EC50 (PPAR-δ): ≥ 10 µM

SMILES: Cc1nn(-c2ccccc2)c(Cl)c1/C=C/C(=O)c1ccc(OC(C)C(=O)O)cc1 (centres unmarked)
- EC50 (PPAR-δ): ≥ 10 µM

SMILES: COc1ccc(C2=NN(c3nc(-c4ccccc4)c(CC(=O)O)s3)C(c3ccco3)C2)cc1 (centres unmarked)
- EC50 (PPAR-δ): ≥ 10 µM

SMILES: CC1CCN(c2ccc(NC(=O)CNC(c3ccc(F)cc3)c3cccs3)cc2)CC1 (centres unmarked)
- EC50 (PPAR-δ): ≥ 10 µM

SMILES: COc1ccc(CCC(=O)Nc2ccc(/C=C/C(=O)O)cc2)cc1OC
- EC50 (PPAR-δ): ≥ 10 µM

SMILES: OCCN1CCN(CC(O)COc2ccc(C34CC5CC(CC(C5)C3)C4)cc2)CC1 (centres unmarked)
- EC50 (PPAR-δ): ≥ 10 µM

SMILES: COc1ccc(C(=O)/C=C/c2ccc(OC(F)F)c(OC)c2)cc1CSCC(=O)O
- EC50 (PPAR-δ): ≥ 10 µM

SMILES: COc1ccc(C(=O)/C=C/c2cccc(C(F)(F)F)c2)cc1CSCC(=O)O
- EC50 (PPAR-δ): ≥ 10 µM

SMILES: COc1ccc(CNC(=O)c2ccc(OCCC(C)C)cc2)cc1C(=O)O
- EC50 (PPAR-δ): ≥ 10 µM

SMILES: Cc1cc(C(=O)COC(=O)c2ccc(O)cc2O)c(C)n1-c1ccc(OC(F)F)cc1
- EC50 (PPAR-δ): ≥ 10 µM

SMILES: COc1cc(/C=C/C(=O)OCC(=O)Nc2ccc(C(C)C)cc2)ccc1O
- EC50 (PPAR-δ): ≥ 10 µM

SMILES: COc1ccc(-c2cc(COc3cc4ccccc4cc3C(=O)O)on2)cc1
- EC50 (PPAR-δ): ≥ 10 µM

SMILES: COc1cc(CN(C)C(=O)NCc2cccc(O)c2)ccc1OCc1ccccc1
- EC50 (PPAR-δ): ≥ 10 µM

SMILES: COc1cc(C=C2CCn3c2nc2cc(C(=O)O)ccc2c3=O)ccc1OCc1ccc(Cl)cc1
- EC50 (PPAR-δ): ≥ 10 µM

SMILES: COc1cc(/C=C/C(=O)OCc2csc(Nc3ccc(C)cc3)n2)ccc1O
- EC50 (PPAR-δ): ≥ 10 µM

SMILES: Cc1ccc(OCCNC(C(=O)Nc2ccc([N+](=O)[O-])cc2Cl)c2ccccc2)cc1 (centres unmarked)
- EC50 (PPAR-δ): ≥ 10 µM

SMILES: CCOc1cc(C=C(CCC(=O)O)c2nc3ccccc3s2)ccc1OCC(=O)N1CCOCC1
- EC50 (PPAR-δ): ≥ 10 µM
